Species on record: Homo sapiens
Assay: Selectivity ratio of IC50 for human GST-tagged haspin expressed in baculovirus expression system to IC50 for recombinant human N-terminal His6-tagged DYRK1A expressed in Escherichia coli BL21(DE3)

Ratio IC50: 24
Compound: O=C(Nc1cncc(-c2cc(-c3cccnc3)cs2)c1)C1CC1
